The experiment can be described thus: Selectivity ratio of Ki for sigma 2 receptor in rat liver membranes to Ki for sigma 1 receptor in guinea pig brain cortex membranes. In kind it is cell membranes.

Structures are written as SMILES.

On to `c1ccc(CN2CCC3(CC2)OCCc2sccc23)cc1`, for which the Ratio Ki was determined as 42.

The record behind these values is ChEMBL document CHEMBL3351546, “Pyridine analogues of spirocyclic σ₁ receptor ligands” (Bioorg Med Chem, 2014).
